Columns and labels:
[1] = biological target: LgBiT-tagged human CXCR4 receptor (UniProt P61073); test: FRET or BRET; NanoBRET dissociation kinetics; membranes from HEK293 LgBiT-CXCR4 cells complemented with 20 nM purified HiBiT; 10 nM CXCL12-AF647 for 15 min, then 1 μM CXCL12 added; 37°C; single exponential fit
[2] = biological target: LgBiT-tagged human CXCR4 receptor (UniProt P61073); test: FRET or BRET; NanoBRET dissociation kinetics; membranes from HEK293 LgBiT-CXCR4 cells complemented with 20 nM purified HiBiT; 10 nM CXCL12-AF647 for 15 min, then 10 μM AMD3100 added; 37°C; single exponential fit

By UniProt entry, the sequences of proteins in these tests, tags left out. Where a name states a change or a piece, a line headed by the entry shows the natural chain unless it says otherwise. Residues count along the entry.
UniProt P61073: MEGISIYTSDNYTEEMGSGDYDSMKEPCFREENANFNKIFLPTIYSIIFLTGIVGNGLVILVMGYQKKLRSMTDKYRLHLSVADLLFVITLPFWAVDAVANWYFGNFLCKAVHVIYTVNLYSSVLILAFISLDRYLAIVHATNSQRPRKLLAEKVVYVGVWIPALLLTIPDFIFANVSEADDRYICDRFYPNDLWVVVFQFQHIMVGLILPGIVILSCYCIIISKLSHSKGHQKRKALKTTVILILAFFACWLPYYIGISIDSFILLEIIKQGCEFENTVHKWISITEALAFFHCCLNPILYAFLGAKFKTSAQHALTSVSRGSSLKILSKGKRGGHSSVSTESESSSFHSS
UniProt P48061, 22-89: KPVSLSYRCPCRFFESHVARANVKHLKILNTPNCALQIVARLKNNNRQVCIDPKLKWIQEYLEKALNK

For “CXCL12-AlexaFluor647 (from UniProt P48061-2 22-89) (ligand; AlexaFluor647 (position not stated))”, the koff [1] was 0.00533 s⁻¹ and the koff [2] was 0.007 s⁻¹.

Source: article PMC7573392, “Monitoring Allosteric Interactions with CXCR4 Using NanoBiT Conjugated Nanobodies” (Cell Chemical Biology, 2020)
